# Measured values as given in patent US20060094693A1, “Methods and compositions for treating glucose-associated conditions, metabolic syndrome, dyslipidemias and other conditions” (Point Therapeutics, Inc., priority 2004, published 2006).
# Chains of the proteins cited; added tags and fusions are not shown. Residues count along the entry.
# UniProt P14740, 37-767 limits assumed: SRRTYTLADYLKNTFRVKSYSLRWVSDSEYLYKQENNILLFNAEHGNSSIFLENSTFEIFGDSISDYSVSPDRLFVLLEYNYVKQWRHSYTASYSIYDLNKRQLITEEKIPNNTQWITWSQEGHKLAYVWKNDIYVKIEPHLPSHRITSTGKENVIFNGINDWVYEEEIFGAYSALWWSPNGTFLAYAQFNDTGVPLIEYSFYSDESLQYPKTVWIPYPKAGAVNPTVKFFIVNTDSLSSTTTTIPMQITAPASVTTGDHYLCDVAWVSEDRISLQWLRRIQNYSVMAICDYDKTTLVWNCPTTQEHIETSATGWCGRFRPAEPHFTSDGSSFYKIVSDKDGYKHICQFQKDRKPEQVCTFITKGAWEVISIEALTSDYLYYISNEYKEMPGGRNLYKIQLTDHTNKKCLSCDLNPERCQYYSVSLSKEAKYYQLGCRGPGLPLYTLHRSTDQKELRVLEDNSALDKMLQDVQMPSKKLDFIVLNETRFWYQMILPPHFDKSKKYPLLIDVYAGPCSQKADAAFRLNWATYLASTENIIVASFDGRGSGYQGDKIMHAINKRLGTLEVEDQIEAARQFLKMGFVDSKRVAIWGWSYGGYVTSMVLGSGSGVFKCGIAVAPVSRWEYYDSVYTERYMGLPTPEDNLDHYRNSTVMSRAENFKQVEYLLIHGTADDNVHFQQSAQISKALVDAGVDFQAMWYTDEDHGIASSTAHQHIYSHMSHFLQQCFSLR
# Where two headings read alike, the source gives them in different places.
# Columns and labels:
# [1] = test system: human bone marrow stromal cells; assay: G-CSF supernatant levels in human bone marrow stromal cell cultures; type: cell-based; details: 1 to 10^4 nM, 24 hours
# Protocol: Human bone marrow stromal cell cultures. Samples of normal human bone marrow were purchased from Cambrex Bioproducts (Walkersville, Md.) and mononuclear cells were purified over Ficoll-Hypaque (Nycomed, Oslo, Norway). Human stromal layers were established by seeding 4×10^7 mononuclear cells into T75 flasks (Corning) containing 20 ml MyeloCult medium (Stem Cell Technologies, Vancouver, BC) supplemented with 10^−6 M hydrocortisone (Sigma) and incubation at 37° C. in 100% humidified 5% CO2 in air. After one week, half the medium was exchanged, and the cultures incubated for approximately one week more, after which time, a semi-confluent cell layer was formed. Stromal cells were harvested by trypsinization using standard technique and 10^5 cells/well were seeded in multi-well plates in 1 ml of fully supplemented DMEM (InVitrogen, Carlsbad, Calif.). […] Multiwell cultures without the addition of amino boronic dipeptides served as controls. […] Supernatant concentrations of human G-CSF were determined by Quantikine enzyme-linked immunosorbent assay (ELISA; R&D Systems, Minneapolis, Minn.) according to the manufacturer's instructions. […] The effect of each amino boronic dipeptide on the level of supernatant G-CSF was determined by calculating a stimulation index (SI): SI=(mean G-CSF concentration in culture with amino boronic dipeptide)/(mean G-CSF concentration in control culture).
# [2] = molecular target: T1, serum DPP-IV (Rattus norvegicus, UniProt P14740); assay: Serum DPP-IV inhibition in Lewis rats; type: in vivo; details: single oral administration, 2 hours
# T1 construct: from tissue; host or cells: serum of Lewis rats dosed with the compounds
# Protocol: Assay of serum DPP-IV inhibition in vivo. Varying doses (0.02, 0.2, 2.0, 20.0 μg/mouse) of Glu-boroPro dissolved in normal saline or the saline vehicle alone were administered to BALB/c mice by oral gavage. Each mouse received a single administration of Glu-boroPro or saline, and blood samples were withdrawn from mice 2 hours later. […]. DPP-IV activity was determined by reaction of 10 μl serum with 90 μl of 0.11 mM Ala-Pro-AFC (Enzyme System Products, Dublin, Calif.) in 50 mM HEPES/Na buffer pH 7.6, 140 mM NaCl. Assays were incubated for 30 minutes, stopped and fluorometric measurements made as described in Example 1. […].
# [3] = molecular target: T2, plasma DPP-IV (Rattus norvegicus, UniProt P14740); details: 10 μmol/kg oral
# [4] = test system: Zucker Diabetic Fatty (ZDF) rats; assay: 6 week glycemic control study in Zucker Diabetic Fatty rats; type: in vivo; details: termination of study
# Protocol: The design of the 6 week long study is depicted in FIG. 8. 60 male Zucker Diabetic Fatty (ZDF) rats (5 weeks of age) were obtained from Charles River Labs. The animals are housed singly and allowed to acclimatize for 1 week before the initiation of the study. 24-hour food intake and body weight was measured gravimetrically twice weekly from the start of housing. HbA1C levels were measured at Day 0, 7, 14, 28 and 46. OGTT was administered on Day 2-3, 15 minutes after the administration of the drugs. OGTT was administered again at the end of the study but in this case, drugs were given 15 hours prior to the OGTT. The 24-hour glucose profile was monitored at day 14-15 of the study.
# The insulin sensitivity index was calculated at the termination of the study according to the method described by Matsuda and DeFronzo (Diabetes Care. 1999 Sep.;22(9):1462-70). […] There was a dose response relationship for the Glu-boroPro group and the improvements in the insulin sensitivity index.
# [5] = molecular target: T2, plasma DPP-IV; assay: in vivo; details: po
# [6] = test system: DIO rats; assay: Single oral dose before oral glucose challenge, DIO rats (Example 10); type: in vivo
# Description: The data shown in FIG. 16A are mean values from 10 rats per treatment.
# The data shown in FIG. 16B are mean values from 10 rats per treatment.
# [7] = test system: Zucker fa/fa rats; assay: Single oral dose before oral glucose challenge, Zucker Fa/Fa rats (Example 10); type: in vivo
# Description: The data shown in FIG. 15 are mean values from 6 rats per treatment.
smiles,measurement,setting,value
"N[C@@H](CCC(=O)O)C(=O)N1CCC[C@H]1B(O)O [Glu-boroPro, glutamic acid boroproline]",supernatant G-CSF level (stimulation index),[1],did not appear to stimulate increased levels of G-CSF
same,ED50,"[2]; rat, read-out: ID50 (dose causing 50% reduction in serum DPP-IV activity)",0.095 mg/kg
same,ID50 (dose causing 50% reduction in serum DPP-IV activity),[2],0.095 mg/kg
same,inhibition of plasma DPP-IV activity,[3]; at t5min,Marked inhibition
same,inhibition of plasma DPP-IV activity,[3]; by t0,maximal inhibition
same,insulin sensitivity index,[4]; 3 micromole/kg,significant improvement
same,insulin sensitivity index,[4]; 10 micromole/kg,significant improvement
same,remaining activity at 10 µmol/kg,"[5]; read-out: plasma DPP-IV activity, % of control values, 10 μmol/kg oral, t24hours",11%
same,remaining activity at 10 µmol/kg,"[5]; read-out: plasma DPP-IV activity, % of control values, 10 μmol/kg oral, t48hours",25%
same,effect on insulin response relative to NVP-LAF237,[6],equivalent to that achieved with an optimal dose of the cyano-pyrrolidine (CP) inhibitor of DPP-IV (NVP-LAF237)
same,effect on insulin secretion AUC relative to NVP-LAF237,[6],equivalent to that achieved with an optimal dose of the cyano-pyrrolidine (CP) inhibitor of DPP-IV (NVP-LAF237)
same,effect on insulin and GLP-1 responses relative to NVP-LAF237,[7],equivalent to that achieved with an optimal dose of the cyano-pyrrolidine (CP) inhibitor of DPP-IV (NVP-LAF237)
same,"levels of un-degraded, active form of GLP-1",[7]; single oral dose 15 minutes prior to oral glucose,increased levels
